Apparent affinities of Ab-14 variants for a coronavirus HR2 peptide

Target: peptide PDVDLGDISGINAS, taken from heptad repeat 2 (HR2) of SARS-CoV-2 spike.

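Phage display of a naive human antibody library on the peptide gave the parent. The library (AAYL50) carries one to three amino acid substitutions per variant, with no insertions or deletions. AlphaSeq pools MATa yeast showing the antibodies with MATalpha yeast showing the peptide. The frequency of each diploid, read from paired DNA barcodes, reflects how well the two displayed proteins bind. Each replicate has its own calibration line, from reference interactions of the BCL2 family. The assay was run in three technical replicates.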

The variants keep the heavy chain, the linker and the frameworks of Ab-14 (scFv order VH, the linker GGGGSGGGGSGGGGS, VL).
VH: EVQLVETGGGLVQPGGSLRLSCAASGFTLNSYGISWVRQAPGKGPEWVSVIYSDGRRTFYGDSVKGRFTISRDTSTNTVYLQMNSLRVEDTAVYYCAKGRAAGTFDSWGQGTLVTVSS
VL: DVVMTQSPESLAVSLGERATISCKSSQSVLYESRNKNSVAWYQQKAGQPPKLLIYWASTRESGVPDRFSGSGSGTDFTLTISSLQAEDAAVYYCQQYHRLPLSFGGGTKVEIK

Variants are written as CDR1, CDR2 and CDR3 of the light chain (limits as in the source). Parent: KSSQSVLYESRNKNSVA, WASTRES, QQYHRLPLS. Kd is apparent (estimated from mating counts) and averaged on the log scale over replicates with a signal. Smaller is tighter. An entry "no signal" has no value in the source: the pair was not observed among the diploids in any replicate. This suggests poor binding but is not conclusive. Nonspecific signal, from three strains lacking the peptide, appeared in 18% of pairings of library AAYL50, centred on 15 µM (5% of these signals below 970 nM); values are not corrected for it. The control count says in how many pairings with the empty strains this scFv gave a signal. Parent in this assay: reference entry 4.4 nM, copy in this library 48 nM.

| CDR-L1 | CDR-L2 | CDR-L3 | apparent Kd | detected | signal with controls |
|---|---|---|---|---|---|
| KSSQSVGVESRNKNSVA | WADTRES | QQYHRLPLS | no signal | 0/3 | 1/9 |
| KSSQSVLYETRNKNSVL | WASTRES | QQYHFLPLS | no signal | 0/3 | 0/9 |
| KSSQSVLYEPRCKNSVA | WASTREA | QQYHRLPLS | 11 nM | 3/3 | 2/9 |
| KSSQSVLYESRNKNSVA | WASTRDV | QQYHRLALS | no signal | 0/3 | 1/9 |
| KSSQSVLYESLNCNSVA | WASTRES | QQYHRLPLS | 8.3 nM | 3/3 | 0/9 |
| KSQSSVLYESRNKNSVA | WASTRES | QQKHRLPLS | 37 nM | 3/3 | 1/9 |
| KSSQSVLVESQNKNSVA | WASTRES | QQYCRLPLS | 38 nM | 3/3 | 4/9 |
| KSSQSVLYESRNKDSVR | WASTVES | QQYHRLPLS | 540 µM | 2/3 | 3/9 |
| KSSQSVLYDSRNKNSLA | WASTRES | QQYHRLVLS | no signal | 0/3 | 2/9 |
| KSSPRVLYESRNKNSVA | WASTRES | QQYHRLPLS | 15 nM | 3/3 | 3/9 |
| KSSVSVLYESRNKNSVA | WASTREW | FQYHRLPLS | 36 nM | 3/3 | 1/9 |
| KSSQSVPYESRNKNSTA | WASTRES | QQYHFLPLS | 9.9 µM | 2/3 | 2/9 |
| KSSQSVLYESTNKNSVA | WASTRES | QQYRRKPLS | no signal | 0/3 | 0/9 |
| KSLQSVLFESRNKNSVA | WASTRES | QQYHRDPLS | 1.9 mM | 1/3 | 3/9 |
| HSSQSVLSEFRNKNSVA | WASTRES | QQYHRLPLS | 170 nM | 3/3 | 4/9 |
| KSSQSILYESRNKNCVA | WASTRES | QQYHRLPLS | 980 nM | 3/3 | 1/9 |
| KSSQSKLYESRNKWSVA | WASTRES | QQYFRLPLS | 47 nM | 3/3 | 3/9 |
| KSSQSVLYESFNKNSVA | WASIRES | QQYHYLPLS | 7.9 nM | 3/3 | 1/9 |
| KSSQSVLYESRVKNSVA | WFSTRES | QQYHRLPVS | no signal | 0/3 | 0/9 |
| KSSQSVLYESRPKNSVG | WASTDES | QQYHRLPLS | no signal | 0/3 | 0/9 |
| KSSQSYLYESRNKNSVA | WRSTRES | QQYHRVPLS | 11 µM | 1/3 | 2/9 |
| KSSQSVLYESRNKNSVA | WASTGES | QQYHREPLS | no signal | 0/3 | 0/9 |
| KSSQSVLYESRNKNSEA | WASTRES | QQHVRLPLS | no signal | 0/3 | 6/9 |
| KSSSSVLYESFNKNSVA | WFSTRES | QQYHRLPLS | 39 µM | 1/3 | 1/9 |
| KSSQSHLYESRNKNSVA | WASTRES | RQYHRLCLS | no signal | 0/3 | 0/9 |
| QSSQSVLYESRNKNSVA | WLSTRES | QQYHRLPLS | 6.6 nM | 1/3 | 0/9 |
| KPSQSVLVESRNKNSVA | WASTRPS | QQYHRLPLS | 4.9 µM | 2/3 | 1/9 |
| KSSQSVLYESRNKNSPA | LAHTRES | QQYHRLPLS | no signal | 0/3 | 1/9 |
| KSSQSVLYESRNKWSVA | WASTRES | QQYARLRLS | no signal | 0/3 | 0/9 |
| KSSQSVLYESRNKNSVA | WKSTRES | QAYLRLPLS | no signal | 0/3 | 1/9 |
| KSSQSVLYESRNKNSTA | WASTLES | QQYHRLNLS | no signal | 0/3 | 0/9 |
| KSSQSVLYGSRNKNIVA | WASTRES | QPYHRLPLS | 140 µM | 2/3 | 2/9 |
| KSSQSVYYESRNKNEVA | IASTRES | QQYHRLPLS | 7.9 µM | 1/3 | 0/9 |
| KSSQSVLYESRNKNSVA | WAHTRES | EQYHRCPLS | 29 µM | 2/3 | 4/9 |
| KSSQSVLYESRNKNSVA | WASTRES | HQYHALPFS | no signal | 0/3 | 0/9 |
| KSSQKVLYESRNKRSVA | EASTRES | QQYHRLPLS | 17 µM | 1/3 | 1/9 |
| KSSQSVLYESRNKNRVA | WQSTRES | QQYHRLPLS | 5.8 µM | 1/3 | 4/9 |
| KSSLSMLYESRNDNSVA | WASTRES | QQYHRLPLS | 2.2 nM | 3/3 | 5/9 |
| KSSQSVLYESRNKNSVA | WASFREQ | QQYHRLPKS | no signal | 0/3 | 0/9 |
| KSSQSVLYESRSKNSVA | WASFRES | QQYHRGPLS | no signal | 0/3 | 2/9 |
| KSSNSYLYESRNKNSVA | WASTGES | QQYHRLPLS | 15 µM | 1/3 | 1/9 |
| KSSQSLLYESRRKNWVA | WASTRES | QQYHRLPLS | 920 nM | 1/3 | 1/9 |
| KRSQSVLYESRNKNCVA | WASTRES | QFYHRLPLS | 490 nM | 1/3 | 0/9 |
| KSSQSVLYESRNKNSVA | WASTRES | QQYSVLPLS | 120 nM | 3/3 | 0/9 |
| KSSQSVLYESYNENSVA | WASTRES | QSYHRLPLS | 28 nM | 3/3 | 4/9 |
| HSSQSVLYESRNKNSVA | WASTRES | QQYARLPKS | 33 nM | 3/3 | 5/9 |
| KIQQSVLMESRNKNSVA | WASTRES | QQYHRLPLS | 2.5 nM | 3/3 | 4/9 |
| KSSLSVLYEVRNKNHVA | WASTRES | QQYHRLPLS | 330 nM | 1/3 | 0/9 |
| HSSQSVLYESRNKNSVA | WASTRES | QQYHGLVLS | no signal | 0/3 | 0/9 |
| KSSQSVLYESRKKNSVA | WASTRES | QQYHEDPLS | no signal | 0/3 | 0/9 |
| KSSQSVLYEFRNKNRVA | WASTAES | QQYHRLPLS | no signal | 0/3 | 0/9 |
| KSSQSVLYESRNLNSVA | WASTREP | QQPHRLPLS | 680 µM | 2/3 | 1/9 |
| KSSQSVLYESRNKNSVA | WASTRES | QQHHRLPLL | 4.0 nM | 3/3 | 4/9 |
| KSSQSVLYESRNKNSVA | WASTQES | QQYHRCPLQ | 530 nM | 3/3 | 6/9 |
| KSSQSVLYESRNINSVA | WASMRES | QQYHRLLLS | no signal | 0/3 | 1/9 |
| KSSWSVLYESRNKVSVA | WASTRES | YQYHRLPLS | 1.2 µM | 3/3 | 1/9 |
| KSSQSVLYESRNYNAVA | WMSTRES | QQYHRLPLS | 190 nM | 3/3 | 2/9 |
| KSSQSVLYECRNKNSVA | WASTRES | QQYHMLPLS | no signal | 0/3 | 0/9 |

Extract of 7 entries:

CDR-L1,CDR-L2,CDR-L3,apparent Kd,detected,signal with controls
KSSQSVLYESRNKNSTA,WASTLES,QQYHRLNLS,no signal,0/3,0/9
KSSQSYLYESRNKNSVA,WRSTRES,QQYHRVPLS,11 µM,1/3,2/9
KSSQSVLYGSRNKNIVA,WASTRES,QPYHRLPLS,140 µM,2/3,2/9
KRSQSVLYESRNKNCVA,WASTRES,QFYHRLPLS,490 nM,1/3,0/9
KSSWSVLYESRNKVSVA,WASTRES,YQYHRLPLS,1.2 µM,3/3,1/9
KSSQSVLYESLNCNSVA,WASTRES,QQYHRLPLS,8.3 nM,3/3,0/9
KSSQSVLYESRNKNSEA,WASTRES,QQHVRLPLS,no signal,0/3,6/9

Source: Engelhart et al. 2022 (doi:10.1038/s41597-022-01779-4), MIT Lincoln Laboratory and A-Alpha Bio; data file from the FLAb repository.